Experimental data from PubChem BioAssay (Tox21).
Where “and” joins values, the source holds several entries; their conditions need not be identical. Equal entries are not always repeated. This is a selection; strong and weak results do not stand in their true shares. Results filed as inconclusive are left out. Calls of active or inactive are those of the source. Unless noted, calls come from the whole dose curve; as a rule, active = well fitted curve in the direction sought with a large enough effect in the repeat runs; inconclusive = weak or mixed curves; inactive = no such curve, though single readings can be large; an effect the other way counts as inactive or inconclusive.

Legend:
[1] = qHTS assay for small molecule agonists of the p53 signaling pathway (AID 651631; calls by dose curve; note: nearly all actives have a fitted effect of over 15% in size; note: potency is the fitted concentration of half-maximal effect)
Outline: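 HCT-116 p53RE-bla reporter line, 16 h compound treatment at 37 °C, then fluorescence after 2 h with B/G FRET substrate.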

[2] = qHTS assay for small molecule disruptors of the mitochondrial membrane potential - cell viability (AID 720634; calls by dose curve;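 note: human HepG2 liver cancer cells; nearly all actives have a fitted effect of over 20% in size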); conditions: HepG2 viability, ATP luminescence (CellTiter-Glo), 1 h; at 83.2 µM (top of the series)
Outline: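 After overnight attachment at 37 C, HepG2 cells received compound or DMSO vehicle for 1 hr. Viability is then taken from ATP-driven luminescence following a 30 min room-temperature CellTiter-Glo step.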

[3] = qHTS assay to test for compound auto fluorescence at 590 nm (red) in HepG2 cells (AID 720674); conditions: HepG2 autofluorescence, red 540/590 nm, 1 h
Outline: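 Seeding: 2,000 HepG2 cells/well, MEM/10% FBS, overnight 37 C. Dosing: compound vs DMSO. Incubation: 1 hr, 37 C, 5% CO2. Read: fluorescence 540 ex/590 em, Rose Bengal sodium as red reference.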

[4] = qHTS assay to test for compound auto fluorescence at 535 nm (green) in HepG2 cells (AID 720675); conditions: green autofluorescence 485/535 nm, 1 h
[5] = qHTS assay to test for compound auto fluorescence at 460 nm (blue) in HEK293 cells (AID 720678); conditions: blue autofluorescence 405/460 nm
Outline: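 After cell attachment (4-5 hr, 37C), compounds were pinned onto HEK293 monolayers in 10% dialyzed FBS medium. The blue channel (405/460 nm) was read following overnight culture. Equivalency was calculated against triamterene.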

[6] = qHTS assay to test for compound auto fluorescence at 590 nm (red) in HEK293 cells (AID 720679); conditions: red autofluorescence 540/590 nm
Text: (§1) National Center for Advancing Translational Sciences [NCATS]
(§2) NIH Chemical Genomics Center [NCGC]
(§3) U.S. Environmental Protection Agency [EPA]
(§4) National Institutes of Environmental Health Sciences [NIEHS]
(§5) National Toxicology Program [NTP]
(§6) U.S. Food and Drug Administration [FDA]
Compound auto fluorescence often interferes with screening of the compound library against various biological targets and signaling pathways. Some of these compounds may have fluorophoric properties. Such properties may interfere with the assay outputs resulting in false positives and/or negatives. To decrease such complications and ensure the compound activities are relevant in terms of biological response, the Tox21 10K compound library was screened for auto fluorescence.
From the fluorophores used as reporter signals in our screening assays, the auto fluorescence equivalencies of compounds against three fluorophores have been evaluated: Triamterene, Fluorescein and Rose Bengal sodium for blue, green and red fluorescence, respectively. The fluorescence intensities were measured using Excitation/Emission wavelengths at 405/460nm, 485/535nm and 540/590nm for blue, green and red labels, respectively. This assay includes the red fluorescence data.
(§7) Tox21 Assay Protocol Summary:
2,000 HEK293 cells in 5 uL of culture medium containing 10% dialyzed FBS per well were dispensed into black wall/clear bottom 1536-well plates using a Multidrop Combi Dispenser (Thermo Scientific). The assay plates were incubated for 4-5 hr at 37C to allow cell attachment to the well bottom, followed by the transfer of 23 nL compound or DMSO vehicle by a pintool work station (Kalypsys, San Diego, CA). After the assay plates were incubated overnight at 37C and 5% CO2, fluorescence intensities in the assay plates were measured by an Envision (PerkinElmer, Shelton, CT) plate reader using three labels for measuring blue, green and red fluorescence at […] 460, 535 and 590nm respectively.

[7] = qHTS assay for small molecules that induce genotoxicity in human embryonic kidney cells expressing luciferase-tagged ATAD5 (AID 651632); conditions: HEK293T ATAD5-luciferase induction, 16 h; at 83.3 µM (top of the series); note: nearly all actives have a fitted effect of over 15% in size
Outline: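 Increased luciferase signal from ATAD5-tagged reporter cells indicates DNA-damage-driven ATAD5 induction. HEK293T cells are treated for 16 hr at 37C before detection with Amplite.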

[8] = qHTS assay for small molecule agonists of the p53 signaling pathway - cell viability (AID 651633; calls by dose curve;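 note: p53RE-bla HCT reporter cells with a stable beta-lactamase p53 reporter; nearly all actives have a fitted effect of over 30% in size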); conditions: p53RE-bla HCT-116 viability, ATP luminescence, 16 h; at 83.3 µM (top of the series)
Text: as §1, §2, §3, §4, §5, §6
p53, a tumor suppressor protein, is activated following cellular insult, including DNA damage and other cellular stresses. The activation of p53 regulates cell fate by inducing DNA repair, cell cycle arrest, apoptosis, or cellular senescence. The activation of p53, therefore, is a good indicator of DNA damage and other cellular stresses. […] The activation of the reporter gene under culture conditions can be detected by fluorescence intensity. This cell line was used to screen the Tox21 compound library in a 1536-well plate format and to identify agonists that activate the p53 signaling pathway.
as §7
The p53RE-bla cells were dispensed at 4,000 cells/5 ul/well in 1536-well black wall/clear bottom plates using a Multidrop dispenser. After the assay plates were incubated at a 37 C/5% CO2 incubator for 5 hours, 23 nL of compounds dissolved in DMSO, positive controls or DMSO only was transferred to the assay plate by a pin tool. The plates were incubated at 37 C for 16 hours. After 1 uL of LiveBLAzerTM B/G FRET substrate was added using a Flying Reagent Dispenser, the plates were incubated at room temperature for 2 hours, and fluorescence intensity was measured by an Envision plate reader.
For cell viability readout that measures cytotoxicity, 4 ul/well of CellTiter-Glo reagent was added into the assay plates using a Flying Reagent Dispenser. After 30 min incubation at room temperature, the luminescence intensity in the plates was measured using a ViewLux plate reader.

[9] = qHTS assay for small molecules that induce genotoxicity in human embryonic kidney cells expressing luciferase-tagged ATAD5 - cell viability (AID 651634; calls by dose curve; note: nearly all actives have a fitted effect of over 25% in size); conditions: HEK293T ATAD5-luc cells viability, CellTiter-Fluor, 15.5 h; at 83.3 µM (top of the series)
Outline: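 Cytotoxicity counterscreen in HEK293T cells bearing an ATAD5-luciferase reporter: live-cell protease activity measured by CellTiter-Fluor fluorescence after 15.5 hr compound exposure.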

[10] = qHTS assay for small molecule disruptors of the mitochondrial membrane potential (AID 720635); conditions: HepG2 mitochondrial membrane potential, Mito-MPS dye ratio; at 83.2 µM (top of the series)
Outline: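 HepG2 cells exposed to compound 1 hr at 37C, then Mito-MPS dye 30 min. Ratio read of aggregate (540/590 nm) versus monomer (490/535 nm) fluorescence.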
% is set by controls: 0 for no effect and ±100 for the full control effect.

| Compound | Potency [1] | activity change, negative = cytotoxicity [2] | fluorescence, relative to Rose Bengal ([3]; at 46 µM (top of the series)) | fluorescence, relative to Rose Bengal ([3]; at 91.3 µM (top of the series)) | fluorescence, % of fluorescein control ([4]; at 46 µM (top of the series)) | fluorescence, % of fluorescein control ([4]; at 91.3 µM (top of the series)) | fluorescence, % of triamterene ([5]; at 46 µM (top of the series)) | fluorescence, % of triamterene ([5]; at 91.3 µM (top of the series)) | fluorescence, % of fluorescent control ([6]; at 46 µM (top of the series)) | fluorescence, % of fluorescent control ([6]; at 91.3 µM (top of the series)) | activation [7] | activity change, negative = cytotoxicity [8] | activity, negative = cytotoxicity [9] | ratio activity, negative = MMP loss [10] |
| --- | --- | --- | --- | --- | --- | --- | --- | --- | --- | --- | --- | --- | --- | --- |
| CN(CCCl)CCCl | active: 8.41 µM and active: 15.3 µM | inactive: 8.29% and inactive: 47.7% | inactive: -0.0271% | inactive: 0.201% | inactive: -0.067% | inactive: -0.0327% | inactive: -0.208% | inactive: -0.0642% | inactive: -0.587% | inactive: 0.487% |  |  |  |  |
| CCC(=O)N(c1ccccc1)C1(COC)CCN(CCn2nnn(CC)c2=O)CC1 |  | inactive: -8.53% |  | inactive: -0.107% |  | inactive: 0.0746% |  | inactive: 0.0276% |  | inactive: -0.189% | inactive: 2.5% | inactive: -19.4% | inactive: 6.92% | inactive: 10.4% |
| CCC(=O)N(c1ccccc1)C1(COC)CCN(CCc2cccs2)CC1 | inactive | inactive: -8.94% |  | inactive: 0.225% |  | inactive: -0.0734% |  | inactive: -0.148% |  | inactive: -0.114% | inactive: -7.98% | inactive: -17.7% | inactive: -21.6% |  |
| CCC(=O)N(c1ccccc1)C1CCN(CCc2ccccc2)CC1 | inactive | inactive: -4.58% | inactive: -0.0203% |  | inactive: -0.0127% |  | inactive: -0.0187% |  | inactive: -0.0176% |  | inactive: -1.41% | inactive: 33% | inactive: 11.4% | inactive: 4.91% |
| O=[N+]([O-])C(Cl)(Cl)Cl | inactive | inactive: 3.73% |  | inactive: 0.0061% |  |  |  | inactive: 0.135% |  | inactive: -0.0274% | inactive: -0.507% | inactive: -17.9% | inactive: 14.8% |  |
